Reference: PMC4151520 (Journal of medicinal chemistry, 2011)

Chains of the proteins cited; added tags and fusions are not shown. Residues count along the entry.
UniProt Q13285, 222-459 limits assumed: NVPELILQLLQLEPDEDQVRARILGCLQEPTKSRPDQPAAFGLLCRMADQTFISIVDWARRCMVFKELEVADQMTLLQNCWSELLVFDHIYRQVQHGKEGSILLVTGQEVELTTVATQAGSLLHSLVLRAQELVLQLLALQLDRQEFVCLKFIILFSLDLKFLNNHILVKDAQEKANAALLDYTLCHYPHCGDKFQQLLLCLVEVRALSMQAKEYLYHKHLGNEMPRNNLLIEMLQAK

What was measured:
[1] = room temperature, 2 weeks
[2] = molecular target: human SF-1 (Homo sapiens, UniProt Q13285); settings: plateau level, normalized to 24-exo

SMILES | stability in CDCl3 in the presence of daylight [1] | RE (relative efficacy of peptide recruitment) SF-1 [2]
C=C(c1ccccc1)[C@@]12CC[C@@H](O)[C@@H]1CC(CCCCCC)=C2c1ccccc1 (racemic) [Compound 24-exo, rac-(1R,5R,6R)-3-Hexyl-6-hydroxy-2-phenyl-1-(phenylvinyl)-bicyclo[3.3.0]oct-2-ene] | stable | 
C=C(c1ccccc1)[C@@]12CC[C@H](O)[C@@H]1CC(CCCCCC)=C2c1ccccc1 (racemic) [Compound 24-endo, rac-(1R,5R,6S)-3-Hexyl-6-hydroxy-2-phenyl-1-(phenylvinyl)-bicyclo[3.3.0]oct-2-ene] | stable | 0.77
